Results from PubChem BioAssay AID886 (National Center for Advancing Translational Sciences (NCATS), 2007).
The entries are a selection whose mix differs from that of the whole data set. Records with an inconclusive call do not appear. Activity calls are given as the source filed them. Calls come from the whole dose curve; as a rule, active = well fitted inhibition curve with a large enough effect; inconclusive = small, poorly fitted or top-dose-only effect; inactive = no such curve, though single readings can be large or run the other way.

The chains behind the UniProt entries cited, without tags or fusion partners.
UniProt Q99714, whole entry: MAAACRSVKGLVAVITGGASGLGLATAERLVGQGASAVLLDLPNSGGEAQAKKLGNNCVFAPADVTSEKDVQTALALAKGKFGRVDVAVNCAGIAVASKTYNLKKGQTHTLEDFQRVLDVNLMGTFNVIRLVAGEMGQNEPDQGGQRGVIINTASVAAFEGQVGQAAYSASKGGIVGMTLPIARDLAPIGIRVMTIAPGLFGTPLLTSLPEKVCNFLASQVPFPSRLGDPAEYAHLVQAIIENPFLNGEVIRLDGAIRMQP

Target: 3-hydroxyacyl-CoA dehydrogenase type-2 (Homo sapiens) (UniProt Q99714)
Experiment: qHTS Assay for Inhibitors of HADH2 (Hydroxyacyl-Coenzyme A Dehydrogenase, Type II); note: nearly all actives have a fitted effect of over 60% in size
Conditions: recombinant HADH2, NADH fluorescence, beta-hydroxybutyryl-CoA; at 57.1 µM (top of the series)
% is set by controls: 0 for no effect and ±100 for the full control effect.

Row | Structure (SMILES) | activity change, negative = inhibition
1 | O=[N+]([O-])C(Cl)(Cl)Cl | inactive: 0.454%
2 | CN(CCCl)CCCl | inactive: -7.96%
